Sampled rows, rich in hits. Any-hit rate of the full collection: about 1.9%.
Yeast UUG start: yeast start codon fidelity modulation | S. cerevisiae UUG-firefly luciferase reporter, luminescence/redox ratio | activity score, % at 18.7 µM | hit rate 0.13% among 350,000 | AID 602363;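 active means replicate mean at a twofold rise or more, about +100% in these data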;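 further: firefly luciferase made from a UUG start codon reports start codon fidelity; reporter light over untreated wells divided by growth signal over untreated wells; some hits fall short of that in this replicate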
ARNT TACC3 PPI: disrupts binding between human ARNT and TACC3; Q9Y6A5; AlphaScreen His-ARNT PAS-B/GST-TACC3 binding, luminescence; TACC3 fragment carries E629A point mutation; inhibition, % at 9.99 µM; hit rate 0.66% among 390,000;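 active means mean inhibition of replicates at least 50% and at least half of replicates each reaching 50%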;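 further: 0% = complete ARNT plus TACC3 wells and 100% = ARNT alone without TACC3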
PglD inh: inhibitors of Campylobacter jejuni PglD acetyltransferase | purified PglD enzyme, DTNB colorimetric CoA detection | inhibition, % at 12.5 µM | hit rate 0.098% among 360,000 | AID 602405; in the data active means inhibition above about 16%, passing the limit was not always enough
FGF22 binding: shifts melting point of recombinant human FGF22; Q9HCT0; recombinant FGF22 thermal shift, SYPRO orange fluorescence; percent of sucrose octasulfate shift, DMSO zero; activity (Tm shift, normalised), % at 9.99 µM; hit rate 1.5% among 340,000; AID 651658;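 active means mean Tm shift, scaled 0 neutral to 100 positive control, at about 1.3% or above, every replicate too, limit read from the data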
PDI turbidity: PDI (human) enzyme inhibition | PDI insulin aggregation turbidity, A650, 90 min | inhibition, % at 10 µM | hit rate 0.052% among 350,000 | AID 588391;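 active means mean inhibition across replicates of 30% or more, whatever share of single replicates reach that level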
ERp5 block: inhibitors of human ERp5 | Q15084 | ERp5 insulin aggregation, absorbance 650 nm, 90 min | inhibition, % at 9.99 µM | hit rate 0.05% among 350,000 | AID 651711;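 active means mean replicate inhibition above about 25%, with every replicate also reaching it, limit read from the data, passing the limit was not always enough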
AlphaScreen ctr: counter-screen for ARNT/TACC3 inhibitors: AlphaScreen artifacts; AC50, µM (titrated, usually from 68 µM), inactives show at the top dose activity change, negative = signal decrease; AID 651705; hit rate 50% among 1,200; His-ARNT PASB-GST AlphaScreen artifact counter-screen, luminescence; shares compounds with ARNT TACC3 PPI;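 active means every separate test run was called active for a drop in luminescence, with AC50 within twice the top valid dose, actives reach about 71 µM in these data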
The depositor's hits bear a star; . = no result given; [ ] = dose if it differs, or a comment.

cpd	compound	Yeast UUG start	ARNT TACC3 PPI	PglD inh	FGF22 binding
1	COC(=O)C(CC#Cc1ccc2c(c1)[C@]1(C(=O)N2)[C@H](C(=O)N2CCCCCCC2)[C@H]2C(=O)O[C@H](c3ccccc3)[C@H](c3ccccc3)N2[C@@H]1c1ccc(OCCO)cc1)C(=O)OC	-6.6	35.2	2.4	0.3
2	COc1ccc(S(=O)(=O)N(C)C[C@H]2OCCCC[C@H](C)Oc3ccc(NC(=O)Nc4c(C)noc4C)cc3C(=O)N([C@@H](C)CO)C[C@@H]2C)cc1	8.8	3.3	-1.6	0.1
3	CN1CCN(/N=C/c2nc(-c3ccccc3Cl)n3ccccc23)CC1	.	34.9*	.	.
4	Cc1ccccc1Nc1nc(N)nc(CN(C)Cc2ccccc2Cl)n1	-31.0	57.3*	.	0.1
5	Cc1cccc(Nc2nc(N)nc(CCl)n2)c1C	-11.1	.	-2.1	-0.1
6	CC1CCCC(C)N1/N=C/c1ccc([N+](=O)[O-])cc1 (centres undefined)	-11.3	51.0*	-2.3	-0.2
7	Cc1ccoc1C(=O)NCCCNC(=O)c1occc1C	-7.4	56.2*	2.3	.
8	O=C(NC1Cc2ccccc2C1)c1cc(-c2ccccc2)on1	.	.	.	.
9	O=C(NC1CCCCC1)c1cc(-c2ccc(F)cc2)on1	-21.4	-4.3	0.5	0.0
10	Cc1ccc(-c2cc(C(=O)NC3CCCC3)no2)cc1	-15.4	-7.3	6.0	-0.2
11	O=C(NC1CCc2ccccc2C1)c1cc(-c2ccccc2)on1 (centres undefined)	.	.	.	.
12	CCC(=O)N(C)C[C@H]1Oc2ncc(-c3ccccc3C)cc2C(=O)N([C@H](C)CO)C[C@@H]1C	-1.4	-8.2	-3.3	0.0

cpd	PDI turbidity	ERp5 block	AlphaScreen ctr
1	.	-0.6	.
2	.	1.6	.
3	16.1	.	-22.1%
4	-18.3	2.0	-30.4%
5	2.5	5.2	.
6	1.3	-1.8	23.7µM*
7	-4.4	.	-7.1%
8	.	.	1.3%[38 µM]
9	7.5	2.8	.
10	15.1	3.9	.
11	.	.	-1.8%[38 µM]
12	.	-0.4	.

Carrying on:
cpd	compound	Yeast UUG start	ARNT TACC3 PPI	PglD inh	FGF22 binding
13	O=C(COC(=O)c1ccc([N+](=O)[O-])o1)Nc1ccc(F)cc1	9.1	active	-2.8	-0.1
14	CC(NC(=O)COC(=O)c1ccc([N+](=O)[O-])o1)c1ccccc1 (centres undefined)	-3.7	29.3*	0.8	0.0
15	Cc1[nH]n(-c2ccccc2)c(=O)c1C(c1ccc(O)c([N+](=O)[O-])c1)c1c(C)[nH]n(-c2ccccc2)c1=O	-17.8	10.3*	-3.4	.
16	O=C(NCc1cccs1)c1cc(-c2ccccc2)on1	-11.8	-6.8	-0.5	.
17	CCCNC(=O)c1cc(-c2ccc(Br)cc2)on1	-21.3	0.9	2.7	.
18	CC(C)(C)CCNC(=O)c1cc(-c2ccccc2)on1	.	.	.	.
19	O=C(NCCN1CCOCC1)c1cc(-c2cccc(O)c2)on1	-12.9	-6.5	1.0	-0.1
20	O=C(NCC1CCCCC1)c1cc(-c2ccccc2)on1	.	.	.	.
21	CCCCNC(=O)c1cc(-c2ccccc2)on1	.	.	.	.
22	O=C(NCCN1CCCCC1)c1cc(-c2ccccc2)on1	.	.	.	.
23	C[C@H](CO)N1C[C@H](C)[C@H](CN(C)C(=O)c2cnccn2)Oc2ncc(-c3cccc(F)c3)cc2C1=O	-10.1	-2.3	1.1	0.0
24	O=C(NCc1ccccn1)c1cc(-c2ccccc2)on1	-9.3	-7.6	6.0	.

cpd	PDI turbidity	ERp5 block	AlphaScreen ctr
13	3.5	6.2	-5.2%
14	0.9	6.0	1.4%
15	-4.2	.	-9.1%
16	-17.6	.	.
17	2.6	.	.
18	.	.	67.6µM*
19	-1.8	2.0	.
20	.	.	3.7%[38 µM]
21	.	.	5.3%[38 µM]
22	.	.	4.6%[38 µM]
23	.	3.6	.
24	1.2	.	.

Ordered by count of non-hydrogen atoms (rising): part of the list above
cpd	compound	Yeast UUG start	ARNT TACC3 PPI	PglD inh	FGF22 binding
18	CC(C)(C)CCNC(=O)c1cc(-c2ccccc2)on1	.	.	.	.
24	O=C(NCc1ccccn1)c1cc(-c2ccccc2)on1	-9.3	-7.6	6.0	.
13	O=C(COC(=O)c1ccc([N+](=O)[O-])o1)Nc1ccc(F)cc1	9.1	active	-2.8	-0.1
15	Cc1[nH]n(-c2ccccc2)c(=O)c1C(c1ccc(O)c([N+](=O)[O-])c1)c1c(C)[nH]n(-c2ccccc2)c1=O	-17.8	10.3*	-3.4	.

cpd	PDI turbidity	ERp5 block	AlphaScreen ctr
18	.	.	67.6µM*
24	1.2	.	.
13	3.5	6.2	-5.2%
15	-4.2	.	-9.1%

The results go on:
cpd	compound	Yeast UUG start	ARNT TACC3 PPI	PglD inh	FGF22 binding
25	O=C(NCCCO)c1cc(-c2ccccc2)on1	.	.	.	.
26	Cc1cccc(CNC(=O)c2cc(-c3ccccc3)on2)c1	.	.	.	.
27	O=C(C[C@H]1C[C@H]2c3cc(NC(=O)C4CCC4)ccc3O[C@H]2[C@@H](CO)O1)NCc1ccc(-c2ccccc2)cc1	-13.5	-15.8	3.5	0.1
28	C[C@@H]1CN([C@H](C)CO)C(=O)c2cc(NC(=O)c3ccncc3)ccc2O[C@@H](C)CCCCO[C@H]1CN(C)C(=O)c1ccncc1	.	-0.9	-5.8	-0.3
29	C/C(=N\NC(=O)c1ccncc1)C12CC3CC(CC(C3)C1)C2	.	50.9*	.	.
30	CN1/C(=N\O)c2cccc3cccc1c23	-25.5	51.8*	-3.2	.
31	CNC(=O)CN1C(=O)c2cccc3cccc1c23	-12.5	-4.1	-4.2	.
32	CO[C@@H]1CN(C)C(=O)c2ccc(NC(=O)c3ccccc3)cc2OC[C@@H](C)N(CC2CC2)C[C@@H]1C	0.6	-2.9	-8.0	0.0
33	Cc1ccc(Nc2c(-c3ccccn3)nc3ccc(C)cn23)cc1	-37.1	28.0	-1.3	-0.2
34	Cc1ccc(Nc2c(-c3ccccn3)nc3cc(C)ccn23)cc1	-31.3	62.0*	0.3	0.1
35	O=C(N/N=C/c1cc(Cl)ccc1O)c1cccnc1	-25.8	57.7*	-8.1	-0.2
36	Cc1nn(Cc2ccccc2)c(C)c1/C=N/NC(=O)c1cccnc1	.	.	.	-0.5

cpd	PDI turbidity	ERp5 block	AlphaScreen ctr
25	.	.	-1.6%[38 µM]
26	.	.	46.9µM*
27	.	2.8	.
28	.	1.1	.
29	-0.2	.	4.6%
30	-2.0	.	-25.0%
31	5.8	.	.
32	.	-4.1	.
33	2.2	1.4	.
34	7.9	3.4	12.7µM*
35	2.2	0.9	60µM*
36	-11.7	1.3	.

Next part
cpd	compound	Yeast UUG start	ARNT TACC3 PPI	PglD inh	FGF22 binding
37	O=C(N/N=C/c1cc(Cl)cc(Cl)c1O)c1ccncc1	-38.0	54.1*	7.7	-0.2
38	O=C(N/N=C/c1ccc(Cl)cc1Cl)c1ccncc1	-18.5	10.3	-1.6	-0.1
39	O=C(N/N=C/c1c(Cl)nc2ccccn2c1=O)c1cccnc1	-23.4	56.7*	-7.2	0.0
40	COc1ccccc1S(=O)(=O)N[C@H]1CC[C@@H](CC(=O)N2CCCCC2)O[C@H]1CO	-30.5	-14.1	-3.1	0.0
41	O=C(C[C@@H]1CC[C@@H](NC(=O)Nc2ccc3c(c2)OCO3)[C@@H](CO)O1)NCc1ccc2c(c1)OCO2	-5.7	0.5	-2.8	0.2
42	Cc1nnc(NC(=O)CSc2nnc(CNC(=O)c3ccc(F)cc3)o2)s1	-12.5	46.5*	-0.1	-0.1
43	Cc1noc(C)c1S(=O)(=O)N(C)C[C@@H]1Oc2ccc(NC(=O)Nc3cccc4ccccc34)cc2CC(=O)N([C@@H](C)CO)C[C@@H]1C	-27.1	.	-2.7	0.1
44	O=C1CCN(Cc2ccccc2)C=C1c1ccc(C(F)(F)F)cc1	-15.1	active	-2.9	0.2
45	O=C(Cn1cncn1)N/N=C/c1cc([N+](=O)[O-])ccc1O	-16.0	63.8*	-8.7	0.2
46	O=C(CCCn1cnc([N+](=O)[O-])n1)Nc1cc(Cl)ccc1O	.	-4.5	.	-0.8
47	O=C(Cn1cnc([N+](=O)[O-])n1)N/N=C/c1cc(Cl)ccc1O	.	58.0*	.	0.0
48	Cc1[nH][nH]c(=O)c1C(c1ccc(-c2ccc(F)cc2)o1)c1c(C)[nH][nH]c1=O	.	48.3*	.	43.0*

cpd	PDI turbidity	ERp5 block	AlphaScreen ctr
37	12.9	2.0	33.7µM*
38	1.1	-3.1	.
39	0.3	4.4	-10.3%
40	.	-0.7	.
41	.	5.0	.
42	1.3	2.8	-8.0%
43	.	-2.3	.
44	3.5	5.5	-18.0%
45	-3.4	4.4	27.9µM*
46	-12.2	-0.3	.
47	-9.9	-0.3	70.4µM*
48	11.5	4.9	-19.3%

Bioassay records as filed in PubChem BioAssay.
